The target in the assay is Human Cot (Homo sapiens (Human), UniProt P41279). The assay can be described thus: High Throughput Cot Biochemical Assay.
The mark [1] stands for this setting: IC50 HTRF, Cot HTRF (TR-FRET) biochemical assay.
Setting [2] is: IC50 HTRF, Cot HTRF (TR-FRET KinEASE) biochemical assay, 400 μM ATP.

Amino acid sequences for entries named in this document (tags omitted). Residues count along the entry.
UniProt P41279, 30-397: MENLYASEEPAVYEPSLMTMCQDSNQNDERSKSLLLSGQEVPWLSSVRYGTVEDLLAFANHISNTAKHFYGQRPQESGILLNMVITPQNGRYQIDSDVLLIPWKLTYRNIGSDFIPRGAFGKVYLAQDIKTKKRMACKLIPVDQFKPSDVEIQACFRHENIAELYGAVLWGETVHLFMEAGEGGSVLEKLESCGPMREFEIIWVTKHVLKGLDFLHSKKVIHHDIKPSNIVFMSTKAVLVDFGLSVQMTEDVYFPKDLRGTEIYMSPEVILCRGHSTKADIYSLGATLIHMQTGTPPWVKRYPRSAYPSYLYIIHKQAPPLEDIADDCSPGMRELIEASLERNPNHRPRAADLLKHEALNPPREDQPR

This passage reports IC50 results from patent US11066414B2, “Cot modulators and methods of use thereof” (Gilead Sciences, Inc., priority 2015, dated 2021).

Molecules are shown by their SMILES. Read-outs that look alike come from different tables or passages of the source.

A word on the IC50: it is the concentration that inhibits the measured activity by half. For `Cn1c(=O)ccc2c([C@H](Nc3cc(Cl)c4ncc(C#N)c(NCC(C)(C)C)c4c3)c3cn(C4(C(F)(F)F)CC4)nn3)cccc21` [Example 789, (S)-8-chloro-6-(((1-methyl-2-oxo-1,2-dihydroquinolin-5-yl)(1-(1-(trifluoromethyl)cyclopropyl)-1H-1,2,3-triazol-4-yl)methyl)amino)-4-(neopentylamino)quinoline-3-carbonitrile], inhibition under setting [1] was half-maximal at 13 nM (IC50).

Under setting [1], `Cc1nc(F)ccc1[C@H](Nc1cc(Cl)c2ncc(C#N)c(NCC(C)(C)C)c2c1)c1cn(CC2(C(F)(F)F)CC2)nn1` [Example 751, (S)-8-chloro-6-(((6-fluoro-2-methylpyridin-3-yl)(1-((1-(trifluoromethyl)-cyclopropyl)methyl)-1H-1,2,3-triazol-4-yl)methyl)amino)-4-(neopentylamino)quinoline-3-carbonitrile] displayed an IC50 of 15 nM.

For the compound `Cc1nc(F)ccc1[C@H](Nc1cc(C#N)c2ncc(C#N)c(N[C@@H](c3ccccc3)C3CC3)c2c1)c1cn(C2(C(F)(F)F)CC2)nn1` [Example 613, 4-(((R)-cyclopropyl(phenyl)methyl)amino)-6-(((S)-(6-fluoro-2-methylpyridin-3-yl)(1-(1-(trifluoromethyl)cyclopropyl)-1H-1,2,3-triazol-4-yl)methyl)amino)quinoline-3,8-dicarbonitrile], the midpoint of inhibition under setting [1], the IC50, lay at 13 nM.

Regarding `CC(C)(C)N1CCC(n2cc([C@@H](Nc3cc(Cl)c4ncc(C#N)c(Nc5cncc(Cl)c5)c4c3)c3cccnc3)nn2)CC1` [Example 284, (S)-6-(((1-(1-(tert-butyl)piperidin-4-yl)-1H-1,2,3-triazol-4-yl)(pyridin-3-yl)methyl)amino)-8-chloro-4-((5-chloropyridin-3-yl)amino)quinoline-3-carbonitrile], the IC50 under setting [1] was 14 nM.

Under setting [2], `Cn1cccc([C@H](Nc2cc(C#N)c3ncc(C#N)c(NCC(C)(C)C)c3c2)c2cn(C3(C(F)(F)F)CC3)nn2)c1=O` [Example 844, (S)-6-(((1-methyl-2-oxo-1,2-dihydropyridin-3-yl)(1-(1-(trifluoromethyl)cyclopropyl)-1H-1,2,3-triazol-4-yl)methyl)amino)-4-(neopentylamino)quinoline-3,8-dicarbonitrile] gave an IC50 of 13 nM.

With `Cn1ncc2c([C@H](Nc3cc(Cl)c4ncc(C#N)c(NCC(C)(C)C)c4c3)c3cn(Cc4c(F)cccc4F)nn3)cccc21` [Example 655, (S)-8-chloro-6-(((1-(2,6-difluorobenzyl)-1H-1,2,3-triazol-4-yl)(1-methyl-1H-indazol-4-yl)methyl)amino)-4-(neopentylamino)quinoline-3-carbonitrile], under setting [1], the IC50 stood at 12 nM.

Consider `Cc1ncoc1[C@H](Nc1cc(Cl)c2ncc(C#N)c(Nc3ccc(F)c(Cl)c3)c2c1)c1cn(C2CCN(C(C)(C)C)CC2)nn1` [Example 265, (R)-6-(((1-(1-(tert-butyl)piperidin-4-yl)-1H-1,2,3-triazol-4-yl)(4-methyloxazol-5-yl)methyl)amino)-8-chloro-4-((3-chloro-4-fluorophenyl)amino)quinoline-3-carbonitrile], for which the IC50 under setting [1] was determined as 14 nM.

Under setting [1], `CC(C)(C)CNc1c(C#N)cnc2c(Cl)cc(N[C@@H](c3ccc(Cl)nc3)c3cn(C4(C(F)(F)F)CC4)nn3)cc12` [Example 793, (S)-8-chloro-6-(((6-chloropyridin-3-yl)(1-(1-(trifluoromethyl)cyclopropyl)-1H-1,2,3-triazol-4-yl)methyl)amino)-4-(neopentylamino)quinoline-3-carbonitrile] showed an IC50 of 35 nM.

`Cc1ncccc1[C@H](Nc1cc(Cl)c2ncc(C#N)c(N[C@H](C)c3ccccc3)c2c1)c1c[nH]nn1` [Example 229, 8-chloro-6-(((S)-(2-methylpyridin-3-yl)(1H-1,2,3-triazol-4-yl)methyl)amino)-4-(((R)-1-phenylethyl)amino)quinoline-3-carbonitrile] displayed an IC50 under setting [1] of 12 nM.

Under setting [1], `CC(C)(C)CNc1c(C#N)cnc2c(Cl)cc(N[C@@H](c3ccc4cccnc4c3)c3cn(C4(C(F)F)CC4)nn3)cc12` [Example 699, (S)-8-chloro-6-(((1-(1-(difluoromethyl)cyclopropyl)-1H-1,2,3-triazol-4-yl)(quinolin-7-yl)methyl)amino)-4-(neopentylamino)quinoline-3-carbonitrile] had a half-inhibitory concentration (IC50) of 12 nM.

`COc1ccc([C@H](Nc2cc(Cl)c3ncc(C#N)c(Nc4ccc(F)c(Cl)c4)c3c2)c2cn(C3CCN(C(C)(C)C)CC3)nn2)cn1` [Example 290, (S)-6-(((1-(1-(tert-butyl)piperidin-4-yl)-1H-1,2,3-triazol-4-yl)(6-methoxy-pyridin-3-yl)methyl)amino)-8-chloro-4-((3-chloro-4-fluorophenyl)amino)-quinoline-3-carbonitrile]: the IC50 under setting [1] was found to be 12 nM.

Turning to `Cc1nc(F)ccc1[C@H](Nc1cc(Cl)c2ncc(C#N)c(NCC(C)(C)C)c2c1)c1nnn2c1OCCC2` [Example 985, (S)-8-chloro-6-(((6,7-dihydro-5H-[1,2,3]triazolo[5,l-b][1,3]oxazin-3-yl)(6-fluoro-2-methylpyridin-3-yl)methyl)amino)-4-(neopentylamino)quinoline-3-carbonitrile], the IC50 (read-out: IC50 HTRF, Cot HTRF (TR-FRET KinEASE) biochemical assay, 400 μM ATP) came out at 13 nM.

In turn, `Cc1nc(Cl)ccc1[C@H](Nc1cc(Cl)c2ncc(C#N)c(NCC(C)(C)C)c2c1)c1cn(C2(C(F)(F)F)CC2)nn1` [Example 794, (S)-8-chloro-6-(((6-chloro-2-methylpyridin-3-yl)(1-(1-(trifluoromethyl)-cyclopropyl)-1H-1,2,3-triazol-4-yl)methyl)amino)-4-(neopentylamino)quinoline-3-carbonitrile] displayed an IC50 under setting [1] of 15 nM.

Take `Cc1cncc([C@H](Nc2cc(Cl)c3ncc(C#N)c(Nc4ccc(F)c(Cl)c4)c3c2)c2c[nH]nn2)c1` [Example 249, (S)-8-chloro-4--((3-chloro-4-fluorophenyl)amino)-6-(((5-methylpyridin-3-yl)(1H-1,2,3-triazol-4-yl)methyl)amino)quinoline-3-carbonitrile]: under “read-out: IC50 HTRF, Cot HTRF (TR-FRET) biochemical assay”, the IC50 is 12 nM.

For the compound `[2H]C(Nc1cc(Cl)c2ncc(C#N)c(N[C@H](CC)c3ccccc3)c2c1)(c1cn(C2CC2)nn1)c1cc(F)cnc1C` (stereo partly drawn) [Example 113, 8-chloro-6-(((1-cyclopropyl-1H-1,2,3-triazol-4-yl)(5-fluoro-2-methylpyridin-3-yl)methyl-d)amino)-4-(((R)-1-phenylpropyl)amino)quinoline-3-carbonitrile], under setting [1], 13 nM corresponded to half-maximal inhibition (IC50).

`N#Cc1csc([C@H](Nc2cc(Cl)c3ncc(C#N)c(Nc4ccc(F)c(Cl)c4)c3c2)c2cn(C3COC3)nn2)c1` [Example 339, (R)-8-chloro-4-((3-chloro-4-fluorophenyl)amino)-6-(((4-cyanothiophen-2-yl)(1-(oxetan-3-yl)-1H-1,2,3-triazol-4-yl)methyl)amino)-quinoline-3-carbonitrile] displayed an IC50 under setting [1] of 13 nM.

As to `CC(C)(C)CNc1c(C#N)cnc2c(Cl)cc(N[C@H](c3cn(C4(C(F)(F)F)CC4)nn3)c3cccc4c(Cl)nccc34)cc12` [Example 916, (S)-8-chloro-6-(((1-chloroisoquinolin-5-yl)(1-(1-(trifluoromethyl)cyclopropyl)-1H-1,2,3-triazol-4-yl)methyl)amino)-4-(neopentylamino)quinoline-3-carbonitrile], half-maximal inhibition under setting [2] (IC50) required 13 nM.
